In one assay the target is EGFR (Homo sapiens (Human), UniProt P00533). In words: Z'-LYTE / Adapta kinase assay, EGFR. The format is biochemical. The settings on record: read-out: EGFR % Inh. @ 100 nM. From the text: (§1) The Z′-LYTE® biochemical assay employs a fluorescence-based, coupled-enzyme format and is based on the differential sensitivity of phosphorylated and non-phosphorylated peptides to proteolytic cleavage (FIG. 6). The peptide substrate is labeled with two fluorophores one at each end—that make up a FRET pair. In the primary reaction, the kinase transfers the gamma-phosphate of ATP to a single tyrosine, serine or threonine residue in a synthetic FRET-peptide. In the secondary reaction, a site-specific protease recognizes and cleaves non-phosphorylated FRET-peptides. Phosphorylation of FRET-peptides suppresses cleavage by the Development Reagent. […] A ratiometric method, which calculates the ratio (the Emission Ratio) of donor emission to acceptor emission after excitation of the donor fluorophore at 400 nm, is used to quantitate reaction progress.
(§2) A significant benefit of this ratiometric method for quantitating reaction progress is the elimination of well-to-well variations in FRET-peptide concentration and signal intensities. […]
(§3) Both cleaved and uncleaved FRET-peptides contribute to the fluorescence signals and therefore to the Emission Ratio. The extent of phosphorylation of the FRET-peptide can be calculated from the Emission Ratio. […]

By UniProt entry, the sequences of proteins in these tests, tags left out.
UniProt P78527, whole entry: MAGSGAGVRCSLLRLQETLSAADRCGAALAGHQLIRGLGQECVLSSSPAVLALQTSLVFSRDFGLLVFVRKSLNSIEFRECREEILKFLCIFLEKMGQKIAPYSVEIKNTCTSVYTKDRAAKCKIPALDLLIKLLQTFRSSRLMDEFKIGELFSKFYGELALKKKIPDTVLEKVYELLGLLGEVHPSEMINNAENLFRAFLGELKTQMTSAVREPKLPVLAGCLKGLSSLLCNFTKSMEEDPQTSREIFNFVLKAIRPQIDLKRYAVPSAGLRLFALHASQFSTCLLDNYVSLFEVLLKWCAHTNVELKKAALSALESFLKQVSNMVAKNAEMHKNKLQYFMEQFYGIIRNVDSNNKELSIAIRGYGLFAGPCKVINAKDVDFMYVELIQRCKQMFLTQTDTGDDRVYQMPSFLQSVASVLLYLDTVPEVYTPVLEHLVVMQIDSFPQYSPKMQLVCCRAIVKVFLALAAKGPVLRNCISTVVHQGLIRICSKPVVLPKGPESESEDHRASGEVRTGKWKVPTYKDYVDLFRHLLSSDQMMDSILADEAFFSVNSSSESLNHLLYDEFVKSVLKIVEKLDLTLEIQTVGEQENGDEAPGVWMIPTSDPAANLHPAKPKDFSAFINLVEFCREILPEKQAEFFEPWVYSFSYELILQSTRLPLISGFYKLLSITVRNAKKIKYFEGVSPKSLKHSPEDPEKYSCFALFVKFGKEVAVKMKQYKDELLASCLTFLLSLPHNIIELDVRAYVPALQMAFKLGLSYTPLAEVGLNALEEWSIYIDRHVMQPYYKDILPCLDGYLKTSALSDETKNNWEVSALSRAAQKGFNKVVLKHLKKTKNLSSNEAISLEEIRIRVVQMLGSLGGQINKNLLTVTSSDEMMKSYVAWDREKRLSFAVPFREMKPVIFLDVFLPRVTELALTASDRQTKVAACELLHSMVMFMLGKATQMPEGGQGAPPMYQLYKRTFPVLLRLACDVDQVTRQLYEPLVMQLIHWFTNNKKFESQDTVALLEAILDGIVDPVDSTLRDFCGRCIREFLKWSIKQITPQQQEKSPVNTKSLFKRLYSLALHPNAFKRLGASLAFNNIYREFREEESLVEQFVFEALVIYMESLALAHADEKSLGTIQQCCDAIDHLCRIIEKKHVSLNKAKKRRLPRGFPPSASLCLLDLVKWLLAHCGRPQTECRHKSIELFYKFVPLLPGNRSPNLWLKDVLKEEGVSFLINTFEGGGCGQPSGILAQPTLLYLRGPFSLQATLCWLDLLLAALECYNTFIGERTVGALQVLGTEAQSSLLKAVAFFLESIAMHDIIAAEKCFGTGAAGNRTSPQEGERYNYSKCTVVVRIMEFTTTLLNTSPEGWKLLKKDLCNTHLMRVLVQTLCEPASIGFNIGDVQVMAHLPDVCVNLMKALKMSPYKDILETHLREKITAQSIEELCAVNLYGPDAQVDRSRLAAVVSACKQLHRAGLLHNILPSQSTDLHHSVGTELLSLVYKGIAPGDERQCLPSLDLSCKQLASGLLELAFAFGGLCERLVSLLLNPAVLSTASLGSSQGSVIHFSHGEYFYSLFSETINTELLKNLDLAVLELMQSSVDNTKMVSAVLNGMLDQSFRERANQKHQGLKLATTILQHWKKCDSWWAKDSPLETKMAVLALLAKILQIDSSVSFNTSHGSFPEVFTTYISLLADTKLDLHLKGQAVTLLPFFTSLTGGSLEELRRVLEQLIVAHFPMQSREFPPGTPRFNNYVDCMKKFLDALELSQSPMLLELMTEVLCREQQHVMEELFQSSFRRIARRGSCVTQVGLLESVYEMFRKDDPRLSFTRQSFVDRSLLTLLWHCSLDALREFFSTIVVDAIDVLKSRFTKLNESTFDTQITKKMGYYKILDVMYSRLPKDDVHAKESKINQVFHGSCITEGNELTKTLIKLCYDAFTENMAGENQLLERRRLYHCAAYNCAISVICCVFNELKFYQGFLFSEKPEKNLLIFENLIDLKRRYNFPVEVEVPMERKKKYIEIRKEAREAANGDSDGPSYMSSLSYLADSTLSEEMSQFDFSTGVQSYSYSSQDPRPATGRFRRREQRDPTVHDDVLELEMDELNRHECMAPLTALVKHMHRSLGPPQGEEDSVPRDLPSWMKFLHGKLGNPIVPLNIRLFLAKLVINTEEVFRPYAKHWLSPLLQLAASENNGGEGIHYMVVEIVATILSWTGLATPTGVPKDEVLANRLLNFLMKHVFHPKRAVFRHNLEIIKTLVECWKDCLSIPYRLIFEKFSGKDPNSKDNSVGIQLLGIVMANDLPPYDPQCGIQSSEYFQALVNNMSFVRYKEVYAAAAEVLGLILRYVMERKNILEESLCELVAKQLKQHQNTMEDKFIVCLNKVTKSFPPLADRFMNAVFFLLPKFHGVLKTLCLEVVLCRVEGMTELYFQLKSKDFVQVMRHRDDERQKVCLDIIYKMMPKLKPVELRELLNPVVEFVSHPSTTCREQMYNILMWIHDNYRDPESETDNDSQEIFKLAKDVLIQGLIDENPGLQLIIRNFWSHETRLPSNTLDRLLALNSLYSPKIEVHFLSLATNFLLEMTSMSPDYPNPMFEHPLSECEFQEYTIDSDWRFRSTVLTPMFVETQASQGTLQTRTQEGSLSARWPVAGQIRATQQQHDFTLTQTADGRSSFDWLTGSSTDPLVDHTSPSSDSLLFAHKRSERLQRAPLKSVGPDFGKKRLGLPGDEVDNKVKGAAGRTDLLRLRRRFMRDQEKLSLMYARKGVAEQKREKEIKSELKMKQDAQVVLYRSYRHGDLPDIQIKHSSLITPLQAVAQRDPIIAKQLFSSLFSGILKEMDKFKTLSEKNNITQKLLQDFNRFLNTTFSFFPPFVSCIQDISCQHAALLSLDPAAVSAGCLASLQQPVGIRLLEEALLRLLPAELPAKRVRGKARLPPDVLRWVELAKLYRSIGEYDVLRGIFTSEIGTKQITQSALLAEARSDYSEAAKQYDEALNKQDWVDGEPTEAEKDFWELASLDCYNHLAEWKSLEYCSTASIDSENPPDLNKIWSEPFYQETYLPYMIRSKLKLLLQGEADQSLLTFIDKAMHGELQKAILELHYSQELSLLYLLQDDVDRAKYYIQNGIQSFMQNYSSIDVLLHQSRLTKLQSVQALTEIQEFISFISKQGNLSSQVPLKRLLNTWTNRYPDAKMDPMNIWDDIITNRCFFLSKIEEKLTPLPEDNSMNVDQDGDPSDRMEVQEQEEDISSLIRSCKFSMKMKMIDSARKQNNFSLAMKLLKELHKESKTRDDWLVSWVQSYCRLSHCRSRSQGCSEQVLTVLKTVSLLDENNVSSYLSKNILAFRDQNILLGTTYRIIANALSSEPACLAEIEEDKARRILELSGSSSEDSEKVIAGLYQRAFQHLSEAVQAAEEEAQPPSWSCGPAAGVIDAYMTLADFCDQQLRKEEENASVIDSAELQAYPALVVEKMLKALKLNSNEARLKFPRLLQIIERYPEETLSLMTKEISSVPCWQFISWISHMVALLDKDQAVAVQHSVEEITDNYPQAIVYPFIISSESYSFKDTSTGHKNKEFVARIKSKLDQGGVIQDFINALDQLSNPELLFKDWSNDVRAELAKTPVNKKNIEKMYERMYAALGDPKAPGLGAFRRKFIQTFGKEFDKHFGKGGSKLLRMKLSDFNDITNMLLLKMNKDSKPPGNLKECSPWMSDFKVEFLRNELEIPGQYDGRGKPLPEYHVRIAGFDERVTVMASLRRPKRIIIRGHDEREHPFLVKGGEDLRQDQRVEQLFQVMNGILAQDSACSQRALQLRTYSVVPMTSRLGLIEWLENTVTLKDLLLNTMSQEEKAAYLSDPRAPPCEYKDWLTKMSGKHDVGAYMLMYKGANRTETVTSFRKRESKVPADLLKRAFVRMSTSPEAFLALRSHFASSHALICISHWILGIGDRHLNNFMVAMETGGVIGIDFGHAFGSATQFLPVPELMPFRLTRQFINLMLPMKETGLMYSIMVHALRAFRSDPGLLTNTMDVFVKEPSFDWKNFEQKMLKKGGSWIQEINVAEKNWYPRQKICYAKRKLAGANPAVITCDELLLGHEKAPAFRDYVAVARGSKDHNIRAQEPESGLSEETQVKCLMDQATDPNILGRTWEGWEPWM

The target in the next assay is DNA-PK (Homo sapiens (Human), UniProt P78527). The experiment in a line: Z'-LYTE / Adapta kinase assay, DNA-PK. It is filed as biochemical. Conditions: read-out: DNA-PK % Inh. @ 100 nM.
Text: as §1, §2, §3

A value given as a limit tells only on which side of the number the result lay.

On to `CS(=O)(=O)Nc1cc(-c2ccc3ncc(C#N)c(NC4CCc5ccccc54)c3c2)cnc1Cl` (centres unmarked) [Compound 101, N-[2-chloro-5-[3-cyano-4-(indan-1-ylamino)-6-quinolyl]-3-pyridyl]methanesulfonamide], for which the values for the inhibition at 0.1 µM at EGFR and at DNA-PK were 10 to 80% and greater than 90%, respectively.

For the origin of these results see patent publication US11673876B2, “Substituted aminobenzyl heteroaryl compounds as EGFR and/or PI3K inhibitors” (Mekanistic Therapeutics LLC, priority 2020, dated 2023).
